Reference: patent US6403765B1, “Truncated Apaf-1 and methods of use thereof” (Thomas Jefferson University, priority 1998, dated 2002)

Test system: MCF-7 cells
Experiment: Inhibition of apoptosis in transfected MCF-7 cells
Format: cell-based
Conditions: apoptosis induced by UV, Fas agonist antibody, TRAIL, or overexpression of DR4 and DR5, FIG. 17
Description: To express the caspases or truncated Apaf-1 in mammalian cells and assay their apoptotic activity, they were amplified with the T7-tag primer and reverse primers using the pET28a constructs as templates, and subcloned into the mammalian double expression vector pRSC-LacZ (MacFarlane et al., J. Biol. Chem., 272:25417-25420, 1997; Tsang et al., Bio/Technology, 22:68, 1997) or as previously described (Li et al., Cell 91:479-489, 1997; Srinivasula et al., J. Biol. Chem., 272:18452-18545, 1997). This vector allows the expression of lacZ under the Rous Sarcoma virus promoter, and the test cDNA under the CMV promoter. To assay for apoptosis, MCF-7 or 293 cells were transfected, using the method commercially available as the Lipofect Amine method (Life Technologies, Inc.), with the pRSC-LacZ constructs in the presence or absence of different apoptosis-inhibitors. 30 h after transfection cells were stained with β-galactosidase and examined for morphological signs of apoptosis. The percentage of round blue apoptotic cells (mean±SD) were determined by phase contrast microscopy and then represented as a function of total blue cells under each condition (n≧3). […]

Substance: X-IAP: X-linked Inhibitor of Apoptosis Protein [reference compound]
- inhibition of apoptosis: inhibition
